In ChEMBL document CHEMBL1146669, “The development of potent non-peptidic PTP-1B inhibitors” (Bioorg Med Chem Lett, 2004):

Biological target: T1, Tyrosine-protein phosphatase non-receptor type 1 (Homo sapiens, UniProt P18031)
T1 sequence (P18031 whole entry): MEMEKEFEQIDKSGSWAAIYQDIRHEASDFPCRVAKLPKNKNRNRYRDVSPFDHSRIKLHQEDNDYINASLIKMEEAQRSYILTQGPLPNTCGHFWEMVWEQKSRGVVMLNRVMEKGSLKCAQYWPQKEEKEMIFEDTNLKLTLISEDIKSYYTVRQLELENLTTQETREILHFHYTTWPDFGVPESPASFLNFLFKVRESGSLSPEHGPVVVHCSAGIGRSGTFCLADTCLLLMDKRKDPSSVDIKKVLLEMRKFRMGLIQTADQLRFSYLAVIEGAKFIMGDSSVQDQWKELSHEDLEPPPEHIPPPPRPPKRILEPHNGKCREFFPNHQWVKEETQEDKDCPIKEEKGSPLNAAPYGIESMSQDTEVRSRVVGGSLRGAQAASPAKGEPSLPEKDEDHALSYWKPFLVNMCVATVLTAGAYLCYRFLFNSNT
Assay: In vitro inhibitory activity against protein tyrosine phosphatase 1B (PTP1B) was determined in fluorescein diphosphate (FDP) assay

## O=C(c1ccccc1)C(Cc1ccc(C(F)(F)P(=O)(O)O)c(Br)c1)c1ccccc1 (stereo unspecified)
  IC50: 120 nM
